# The list shows a part of the results, in another mix than the full data. Results filed as inconclusive are left out. Some salts and complexes are drawn in separate pieces, as the source files them; their charges need not balance. The source made the active and inactive calls. Cut-off read from the data, not from the text of the source: active = max response below about -50%; inconclusive = no clear call, values can overlap the other calls; inactive = above that.
# The chains behind the UniProt entries cited, without tags or fusion partners.
# UniProt P35462, whole entry: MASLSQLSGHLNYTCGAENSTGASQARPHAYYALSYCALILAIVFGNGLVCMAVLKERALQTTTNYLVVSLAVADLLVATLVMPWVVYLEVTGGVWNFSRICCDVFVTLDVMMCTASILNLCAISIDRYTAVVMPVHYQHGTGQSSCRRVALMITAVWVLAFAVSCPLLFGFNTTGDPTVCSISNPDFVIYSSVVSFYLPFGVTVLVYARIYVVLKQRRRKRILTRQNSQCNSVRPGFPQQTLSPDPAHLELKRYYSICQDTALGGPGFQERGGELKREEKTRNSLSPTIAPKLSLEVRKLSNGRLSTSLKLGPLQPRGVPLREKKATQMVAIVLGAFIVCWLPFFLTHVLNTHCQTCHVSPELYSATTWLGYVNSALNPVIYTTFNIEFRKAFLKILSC
# Target: D(3) dopamine receptor (Homo sapiens) (UniProt P35462)
# Test: qHTS of D3 Dopamine Receptor Antagonist: qHTS
# Conditions: D3R cells, DiscoveRx beta-arrestin luminescence, antagonist mode; hits give low values
# From the text: D3 DARs represent a very important target for the treatment of several neuropsychiatric disorders. Indeed, one of the most promising therapeutic applications for the D3 DAR is in the area of addiction and related disorders. […] These findings have been observed with a number of addictive substances including cocaine, amphetamine, nicotine, and alcohol. […] Antagonism of the D3 DAR may also be therapeutic in the treatment of schizophrenia or psychosis. […] Since the D3 DAR is expressed in areas of the CNS associated with the control of mood and emotion, it has been hypothesized that selective antagonism of the D3 DAR may be effective in treating psychosis without inducing the motor side effects typically seen with D2 DAR antagonists.
# This part of the project aims to discover novel antagonist.
# NIH Chemical Genomics Center [NCGC]
# NIH Molecular Libraries Probe Centers Network [MLPCN]
# Assay Submitter (PI): David Sibley, NINDS
# Freshly passaged cells are plated in 1536 well white, solid bottom plates at a density of 1500 cells/well in 3microl of complete media. After an overnight incubation at 37 degrees C in 5% CO2, cells are loaded with 23nl of test compound from the compound library (as well as dopamine controls) using a 1536 pintool and incubated at 37 degrees C for 90 minutes. Two microliters of DiscoveRx reagent is then added to all cells, and they are incubated for an additional 30 - 60 minutes at room temperature. Following incubation, luminescence is measured on a ViewLux CCD-based luminometer reader using a 20 sec exposure time.
# % is set by controls: 0 for no effect and ±100 for the full control effect.
row,SMILES,"max response, negative = inhibition"
1,O=C(OC1CN2CCC1CC2)C1c2ccccc2C=Cc2ccccc21 (stereo unspecified),inactive: 8.13%
2,O=C(O)c1cccc(Nc2c([N+](=O)[O-])cc([N+](=O)[O-])cc2[N+](=O)[O-])c1,active: -112%
3,O=c1[nH]c2ccccc2n1C1CCN(C(c2cccs2)c2nnnn2C2CCCC2)CC1 (stereo unspecified),inactive: 12.1%
4,CCCCn1nnnc1C(c1cccc(OC)c1OC)N1CCC(n2c(=O)[nH]c3ccccc32)CC1 (stereo unspecified),inactive: 5.38%
5,CCOC(=O)N1CCC(Nc2ccc(C)cc2)CC1,inactive: 20.6%
6,N/C(=N\O)c1c(N)no[n+]1[O-],inactive: 0%
7,O=c1[nH]c2ccccc2n1C1CCN(C(c2cccs2)c2nnnn2C2CCCCC2)CC1 (stereo unspecified),inactive: 24.2%
8,COc1ccc(C(=O)NCC2(N3CCOCC3)CCCCC2)cc1OC,inactive: -1.18%
9,O=c1[nH]c2ccccc2n1C1CCN(C(c2ccnc3ccccc23)c2nnnn2C2CCCC2)CC1 (stereo unspecified),inactive: 45%
10,CCCCn1nnnc1C(c1ccccc1)N1CCC(n2c(=O)[nH]c3ccccc32)CC1 (stereo unspecified),inactive: 23.5%
11,COc1cc(C(=O)NCC2(N3CCOCC3)CCCCC2)cc(OC)c1C,inactive: -11.4%
12,O=C(NCC1(N2CCOCC2)CCCCC1)c1cc(Br)ccc1Cl,inactive: 2.12%
13,CC(C)(C)n1nnnc1C(c1cccc2ccccc12)N1CCC(n2c(=O)[nH]c3ccccc32)CC1 (stereo unspecified),inactive: 22.9%
14,CN(C)C1(CNC(=O)c2cccc(C#N)c2)CCCCC1,inactive: 12%
15,O=c1[nH]c2ccccc2n1C1CCN(C(c2ccccc2)c2nnnn2C2CCCC2)CC1 (stereo unspecified),inactive: 0%
16,CCCN1CCC(Nc2cc(OC)cc(OC)c2)CC1,inactive: -18.6%
17,Cc1cc(N(CCCl)CCCl)ccc1C=O,inactive: 5.82%
18,CCOC(=O)C(CC)C1=NC(C)(C)Cc2ccccc21.O=[N+]([O-])c1cc([N+](=O)[O-])c(O)c([N+](=O)[O-])c1 (stereo unspecified),inactive: -22.9%
19,N#Cc1ccc(C(=O)NCC2(N3CCCCC3)CCCCC2)cc1,inactive: 7.34%
20,CC(C)(C)OC(=O)N1CCC(N(C(=O)c2ccccc2)c2ccc(Cl)cc2)CC1,inactive: 0%
21,O=C(NCC1(N2CCCCC2)CCCCC1)c1ccco1,inactive: -20.2%
22,Cn1c(=O)[nH]cc(N(CCCl)CCCl)c1=O,inactive: 0.66%
23,CN(C)c1ccc(C(=O)NCC2(N3CCCCC3)CCCCC2)cc1,inactive: -8.48%
24,Cc1ccccc1NC1(C#N)CCN(Cc2ccccc2)CC1,inactive: 1.6%
25,CC(C)(C)n1nnnc1C(c1ccnc2ccccc12)N1CCC(n2c(=O)[nH]c3ccccc32)CC1 (stereo unspecified),inactive: 7.92%
26,CCN1CCC(Nc2cccc(F)c2)CC1,inactive: -7.08%

row,SMILES,"max response, negative = inhibition"
1,Cc1ccc(C(=O)NCC2(N3CCCCC3)CCCCC2)o1,inactive: 12.8%
2,Cc1ccc(NC2(C#N)CCN(Cc3ccccc3)CC2)cc1,inactive: -16.8%
3,CC(=O)N(c1ccccc1)C1CCNCC1,inactive: 11.7%
4,COc1cccc(C(c2nnnn2C2CCCCC2)N2CCC(n3c(=O)[nH]c4ccccc43)CC2)c1OC (stereo unspecified),inactive: 93%
5,CCC(c1nnnn1C1CCCCC1)N1CCC(n2c(=O)[nH]c3ccccc32)CC1 (stereo unspecified),inactive: 12.2%
6,O=c1[nH]c2ccccc2n1C1CCN(C(c2ccnc3ccccc23)c2nnnn2C2CCCCC2)CC1 (stereo unspecified),inactive: 62.7%
7,CN1CCC(Nc2ccc(Cl)cc2)CC1,inactive: -4.91%
8,COc1cccc(C(c2nnnn2C2CCCC2)N2CCC(n3c(=O)[nH]c4ccccc43)CC2)c1OC (stereo unspecified),inactive: 64.4%
9,COc1cc(OC)cc(C(=O)NCC2(N3CCOCC3)CCCCC2)c1,inactive: 13.6%
10,COc1cccc(C(=O)N(c2cc(C)cc(C)c2)C2CCN(C(=O)OC(C)(C)C)CC2)c1,inactive: 1.15%
11,CCC(CO)(C(=O)OC1CN2CCC1CC2)c1ccccc1 (stereo unspecified),inactive: 16.5%
12,CC(C)(C)OC(=O)N1CCC(Nc2ccccc2)CC1,inactive: -1.07%
13,O=C(O)C1(Nc2ccccc2)CCN(Cc2ccccc2)CC1,inactive: -23.8%
14,NN(c1ccccc1)C1CCN(CCc2ccccc2)CC1,inactive: 0%
15,CCCOc1ccc(C(=O)NCC2(N(C)C)CCCCC2)cc1,inactive: 2.71%
16,O=c1[nH]c2ccccc2n1C1CCN(C(c2cc3ccccc3o2)c2nnnn2C2CCCC2)CC1 (stereo unspecified),inactive: 36.2%
17,CCOc1ncccc1C(=O)NCC1(N2CCOCC2)CCCCC1,inactive: -8.54%
18,CN1CCC(Nc2ccc(F)c(Cl)c2)CC1,inactive: -11.9%
19,O=C(OC1CN2CCC1CC2)C1c2ccccc2Oc2ccccc21 (stereo unspecified),inactive: -3.24%
20,O=c1[nH]c2ccccc2n1C1CCN(C(c2cc3ccccc3o2)c2nnnn2C2CCCCC2)CC1 (stereo unspecified),inactive: 53.7%
21,N#CC1(Nc2ccccc2)CCN(Cc2ccccc2)CC1,inactive: -12.7%
22,O=C1C(O)=C([N+](=O)[O-])C(=O)C(O)=C1[N+](=O)[O-],inactive: -18.9%
23,COc1ccc(Cl)cc1C(=O)NCC1(N2CCOCC2)CCCCC1,inactive: -3.75%
24,CCOC(=O)N1CCC(Nc2ccc(OC)cc2)CC1,inactive: 5.11%
25,O=c1[nH]c2ccccc2n1C1CCN(C(c2ccccc2OC(F)(F)F)c2nnnn2C2CCCCC2)CC1 (stereo unspecified),inactive: 101%
26,O=C(NCC1(N2CCCCC2)CCCCC1)c1ccc(Cl)nc1,inactive: 5.79%

row,SMILES,"max response, negative = inhibition"
1,Cc1cc(C)cc(N(C(=O)c2ccccc2)C2CCN(C(=O)OC(C)(C)C)CC2)c1,inactive: -21.7%
2,O=C(NCC1(N2CCOCC2)CCCCC1)c1cc2ccccc2o1,inactive: 0%
3,CSc1ccccc1C(=O)NCC1(N2CCCCC2)CCCCC1,inactive: -13.9%
4,COc1ccc(C(=O)NCC2(N3CCCCC3)CCCCC2)cc1,inactive: -17.8%
5,CCC(c1nnnn1C1CCCC1)N1CCC(n2c(=O)[nH]c3ccccc32)CC1 (stereo unspecified),inactive: 1.15%
6,COc1ccc(C(=O)NCC2(N3CCCCC3)CCCCC2)c(OC)c1OC,inactive: -4.13%
7,CC(C)(C)OC(=O)N1CCC(N(C(=O)c2ccccc2)c2ccc(F)cc2)CC1,inactive: 3.37%
8,O=C(NCC1(N2CCCCC2)CCCCC1)c1ccc(=O)[nH]c1,inactive: 1.51%
9,CCCCn1nnnc1C(c1cccs1)N1CCC(n2c(=O)[nH]c3ccccc32)CC1 (stereo unspecified),inactive: -3.15%
10,CCCCn1nnnc1C(CC)N1CCC(n2c(=O)[nH]c3ccccc32)CC1 (stereo unspecified),inactive: 22.9%
11,O=C(NCC1(N2CCCCC2)CCCCC1)c1cccs1,inactive: 2.63%
12,CCOC(=O)N1CCC(Nc2cccc(C)c2)CC1,inactive: 0.523%
13,O=c1[nH]c2ccccc2n1C1CCN(C(c2cccc3ccccc23)c2nnnn2C2CCCC2)CC1 (stereo unspecified),inactive: 12.2%
14,O=c1[nH]c2ccccc2n1C1CCN(C(c2ccccc2)c2nnnn2C2CCCCC2)CC1 (stereo unspecified),inactive: 62.9%
15,O=C(NCC1(N2CCCCC2)CCCCC1)c1ccc(F)cc1,inactive: 0.368%
16,O=P1(N(CCCl)CCCl)SCCCS1,inactive: 4.96%
17,CCCCn1nnnc1C(c1cc2ccccc2o1)N1CCC(n2c(=O)[nH]c3ccccc32)CC1 (stereo unspecified),inactive: 39.9%
18,CCCCOc1ccc(C(=O)NCC2(N3CCOCC3)CCCCC2)cc1,inactive: 12.1%
19,CCOC(=O)N1CCC(Nc2ccc(F)cc2)CC1,inactive: 5.82%
20,CC(C)(C)n1nnnc1C(c1ccccc1)N1CCC(n2c(=O)[nH]c3ccccc32)CC1 (stereo unspecified),inactive: -22.5%
21,O=C1CCN(Cc2ccccc2)CC1,inactive: 0%
22,CCOc1ccc(C)cc1CN(CCCl)CCCl,inactive: -13.5%
23,COc1cc(C(=O)NCC2(N3CCCCC3)CCCCC2)ccc1OC(F)F,inactive: -18.5%
24,O=C(NCC1(N2CCOCC2)CCCCC1)c1cc(=O)[nH]c2ccccc12,inactive: -18.2%
25,CCCCn1nnnc1C(c1cccc2ccccc12)N1CCC(n2c(=O)[nH]c3ccccc32)CC1 (stereo unspecified),inactive: 15.1%
26,CN1CCN(CCOC(=O)C(O)(c2ccccc2)c2ccccc2)CC1,inactive: -15.8%

row,SMILES,"max response, negative = inhibition"
1,COc1ccc(NC2CCN(C(=O)OC(C)(C)C)CC2)cc1,inactive: 6.94%
2,CC(C)c1ccc(C(=O)NCC2(N3CCOCC3)CCCCC2)cc1,inactive: -21.3%
3,CCN1CCC(Nc2ccc(Cl)cc2)CC1,inactive: 8.05%
4,N#CC1(Nc2ccccc2)CCN(CCc2ccccc2)CC1,inactive: 0.185%
5,O=c1[nH]c2ccccc2n1C1CCN(C(c2ccccc2OC(F)(F)F)c2nnnn2C2CCCC2)CC1 (stereo unspecified),inactive: 30.8%
6,O=C(NCC1(N2CCCCC2)CCCCC1)c1cccc([N+](=O)[O-])c1,inactive: -14.3%
7,CC(C)(C)n1nnnc1C(c1ccccc1OC(F)(F)F)N1CCC(n2c(=O)[nH]c3ccccc32)CC1 (stereo unspecified),inactive: 33.1%
8,O=C(NCC1(N2CCCCC2)CCCCC1)c1ccc(OC(F)F)cc1,inactive: 8.64%
9,COc1ccc(C(c2nnnn2C2CCCC2)N2CCC(n3c(=O)[nH]c4ccccc43)CC2)cc1 (stereo unspecified),inactive: -10.3%
10,Cc1ccc(C(=O)NCC2(N(C)C)CCCCC2)o1,inactive: 15.3%
11,CCCOc1ccc(C(=O)NCC2(N(C)C)CCCCC2)cc1OC,inactive: 11.7%
12,O=C(OC1CN2CCC1CC2)c1ccc([N+](=O)[O-])cc1 (stereo unspecified),inactive: 0.75%
13,COc1ccc2c(c1O)-c1c(O)c(OC)cc3c1[C@H](C2)[N+](C)(C)CC3.O=[N+]([O-])c1cc([N+](=O)[O-])c([O-])c([N+](=O)[O-])c1[O-],inactive: -4.42%
14,CN1CCC(Nc2cccc(F)c2)CC1,inactive: 12.3%
15,COc1cc(OC)c(C(=O)NCC2(N(C)C)CCCCC2)cc1OC,inactive: -17.8%
16,CCC(c1nnnn1C(C)(C)C)N1CCC(n2c(=O)[nH]c3ccccc32)CC1 (stereo unspecified),inactive: 0%
17,O=C(NCC1(N2CCOCC2)CCCCC1)c1cc(F)c(F)cc1Cl,inactive: 12%
18,CCCCn1nnnc1C(c1ccnc2ccccc12)N1CCC(n2c(=O)[nH]c3ccccc32)CC1 (stereo unspecified),inactive: 13.1%
19,CC(C)c1ccc(NC2CCN(C(=O)OC(C)(C)C)CC2)cc1,inactive: 7.41%
20,CCCCn1nnnc1C(c1ccccc1OC(F)(F)F)N1CCC(n2c(=O)[nH]c3ccccc32)CC1 (stereo unspecified),inactive: 24.1%
21,COc1ccc(CN(CCCl)CCCl)cc1Cl,inactive: 5.65%
22,O=[N+]([O-])c1cc([N+](=O)[O-])c(OC2CCCCC2O)c([N+](=O)[O-])c1 (stereo unspecified),inactive: 21.9%
23,CN(C)c1cccc(C(=O)NCC2(N3CCCCC3)CCCCC2)c1,inactive: -13.4%

# — PubChem BioAssay AID652054 (National Center for Advancing Translational Sciences (NCATS), 2013)
